Where a chain is given by its changes, count along the chain named. Several values for one entry are separate records, joined by “and”; a condition that tells them apart may be missing. Identical values can stand only once.

One series has as its target T1, GLUT5A396W (Homo sapiens, UniProt P22732, A396W).
T1 construct: Full length DNA was subcloned into pFastBac1 (Life Technologies) vector with a N-terminal hexahistidine tag; hexahistidine (thrombin-cleavable) (N, cleaved yes); made in house; host or cells: Sf21 insect cells (baculovirus, pFastBac1)
T1 sequence (P22732 1-501 A396W): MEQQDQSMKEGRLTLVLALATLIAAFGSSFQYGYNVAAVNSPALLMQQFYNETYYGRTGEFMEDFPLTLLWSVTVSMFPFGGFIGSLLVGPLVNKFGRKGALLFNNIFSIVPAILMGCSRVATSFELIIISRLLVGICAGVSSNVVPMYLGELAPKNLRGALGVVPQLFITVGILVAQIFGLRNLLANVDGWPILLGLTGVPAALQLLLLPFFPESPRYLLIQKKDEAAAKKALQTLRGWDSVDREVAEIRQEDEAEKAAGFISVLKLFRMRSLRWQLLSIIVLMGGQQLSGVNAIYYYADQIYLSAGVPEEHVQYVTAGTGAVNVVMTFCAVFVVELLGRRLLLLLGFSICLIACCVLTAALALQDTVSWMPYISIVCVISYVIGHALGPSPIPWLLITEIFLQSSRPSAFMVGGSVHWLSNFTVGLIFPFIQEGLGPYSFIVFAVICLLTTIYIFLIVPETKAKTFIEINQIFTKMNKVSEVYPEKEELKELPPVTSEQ
As to the kind of experiment: entrance counter-flow transport assay, glucose transport by GLUT5A396W proteoliposomes. It counts as biochemical.

For another series, the target named is T2, GLUT1W388A (Homo sapiens, UniProt P11166, W388A).
T2 construct: Full length DNA was subcloned into pFastBac1 (Life Technologies) vector with a N-terminal hexahistidine tag; hexahistidine (thrombin-cleavable) (N, cleaved yes); made in house; host or cells: Sf21 insect cells (baculovirus, pFastBac1)
T2 sequence (P11166 1-492 W388A): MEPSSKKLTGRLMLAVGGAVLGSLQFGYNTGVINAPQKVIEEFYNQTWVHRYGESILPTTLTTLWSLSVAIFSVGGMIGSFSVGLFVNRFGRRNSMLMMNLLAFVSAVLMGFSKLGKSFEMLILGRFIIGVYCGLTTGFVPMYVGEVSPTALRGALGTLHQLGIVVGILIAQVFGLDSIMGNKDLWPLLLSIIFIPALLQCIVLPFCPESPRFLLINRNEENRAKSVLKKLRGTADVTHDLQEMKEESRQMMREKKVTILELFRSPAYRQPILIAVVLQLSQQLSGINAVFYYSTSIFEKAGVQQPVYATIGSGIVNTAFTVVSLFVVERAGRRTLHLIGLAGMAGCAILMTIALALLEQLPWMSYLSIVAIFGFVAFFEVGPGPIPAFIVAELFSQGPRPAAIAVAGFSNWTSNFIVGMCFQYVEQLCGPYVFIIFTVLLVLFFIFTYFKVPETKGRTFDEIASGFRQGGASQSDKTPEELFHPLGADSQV
As to the kind of experiment: entrance counter-flow transport assay, glucose transport by GLUT1W388A proteoliposomes. It counts as biochemical.

Another series concerns the target T3, human GLUT5 (Homo sapiens, UniProt P22732).
T3 construct: Full length DNA was subcloned into pFastBac1 (Life Technologies) vector with a N-terminal hexahistidine tag; hexahistidine (thrombin-cleavable) (N, cleaved yes); made in house; host or cells: Sf21 insect cells (baculovirus, pFastBac1)
T3 sequence (P22732 1-501): T1 sequence (P22732 1-501 A396W) with W396A
The series can be described thus: entrance counter-flow transport assay, GLUT5-mediated fructose transport in proteoliposomes. It counts as biochemical. The text has this:
Human GLUT1 and GLUT5 were expressed recombinantly in insect cell culture. The purified proteins were reconstituted into proteoliposomes. To measure the inhibition of GLUT1 or GLUT5 transport activity we used entrance counter-flow transport assay.
Proteoliposomes were generated according to the protocol from[30] with minor modifications. Liposomes were produced from a 95/5% (w/w) mix of soy phosphatidylcholine and cholesterol (Avanti Polar Lipids). Briefly, hexane-washed and vacuum-dried lipids were resuspended to 20 mg/ml in 100 mM KPi (pH 7.5), and then subjected to 11 freeze-and-thaw cycles in liquid nitrogen and room temperature water. The lipid mixture was extruded through a 0.1 μm polycarbonate filter. Prepared liposomes were destabilized with 4 mM Triton X-100 and mixed with purified protein in a 100:1 (w/w) ratio in 100 mM KPi (pH 7.5) 20% (v/v) glycerol, 200 mM (glucose or fructose). […]
To measure hexose transport, we utilized entrance counter-flow assay. […] The membrane filter was placed into a vial filled with BioSafe II scintillation liquid (Research Products International Corp.), and radioactivity was quantified with LS 6500 scintillation counter (Beckman). […] Data is presented as relative activity normalized to radioactivity of no inhibitor added as 100% and empty proteoliposomes as 0%. […]

On the set-up of series [1]: method as in PMID 22133440. The settings on record: cited from earlier work.

Turning to `C=C1C[C@@]23CC[C@H]4[C@@](C)(CCC[C@@]4(C)C(=O)O[C@@H]4O[C@H](CO)[C@@H](O)[C@H](O)[C@H]4O)[C@@H]2CC[C@]1(O[C@@H]1O[C@H](CO)[C@@H](O)[C@H](O)[C@H]1O)C3` [Rub, Rubusoside], at GLUT5A396W, the IC50 is 6.8 ± 0.4 mM.

For Astragalin-6-glucoside [Ast6G], the 50% inhibitory concentration (IC50) is 10.7 ± 2.5 mM against GLUT1W388A; 6.8 mM and ~6 mM at human GLUT5; 3.7 ± 1.2 mM against GLUT5A396W. Further, in series [1], the “solubility in water” value is recorded as “water soluble”.
